For this test, the target named is T1, Neutrophil elastase (Homo sapiens, UniProt P08246).
T1 sequence (P08246 whole entry): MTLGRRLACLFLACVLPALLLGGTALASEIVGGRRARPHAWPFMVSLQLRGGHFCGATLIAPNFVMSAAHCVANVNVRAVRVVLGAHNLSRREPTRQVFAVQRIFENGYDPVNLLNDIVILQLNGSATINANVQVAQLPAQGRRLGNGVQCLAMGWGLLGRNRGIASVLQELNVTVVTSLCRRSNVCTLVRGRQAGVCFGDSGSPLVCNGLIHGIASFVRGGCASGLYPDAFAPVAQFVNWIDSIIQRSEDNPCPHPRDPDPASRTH
As to the kind of experiment: Inhibition of human neutrophil elastase measured for 30 mins by spectrophotometry.

Usually IC50 stands for the concentration at which inhibition is half-maximal. Lower therefore signals higher potency.

Consider `C/C(=N/O)c1ccccc1NS(=O)(=O)c1ccc(OC(=O)C(C)(C)C)cc1`, for which the IC50 was found to be 50 nM.
Molecule `CC(C)(C)C(=O)Oc1ccc(S(=O)(=O)Nc2ccccc2C(=O)NCC(=O)O)cc1` yielded an IC50 of 70 nM.

The values are drawn from ChEMBL document CHEMBL3396960, “Synthesis and pharmacological characterization of 2-aminobenzaldehyde oxime analogs as dual inhibitors of neutrophil elastase and proteinase 3” (Bioorg Med Chem, 2015).
